Measurements as given in patent US20140371162A1, “COMBINATION THERAPY COMPRISING SGLT INHIBITORS AND DPP4 INHIBITORS” (MITSUBISHI TANABE PHARMA CORPORATION, priority 2008, published 2014).

Test system: plasma active GLP-1 level
Assay: Plasma active GLP-1 level in glucose-loaded normal (DPP4-positive) rats, Example 4
Conditions: rat, in vivo, 10 mg/kg

N[C@@H](CC(=O)N1CCn2c(nnc2C(F)(F)F)C1)Cc1cc(F)c(F)cc1F [Compound H, Sitagliptin phosphate, reference compound]
GLP-1 concentration at 2 hr after oral administration: 4.1 ± 0.5 pM
